Patent US8530494B2 (priority 2008, dated 2013)

System: rats
Settings: rat, in vivo

Q: Which “carbon dioxide in blood samples” value does the source give for `CN1CC[C@]23c4c5ccc(O)c4O[C@H]2[C@@H](O)C=C[C@H]3[C@H]1C5` [Morphine, morphine] here?
A: significantly increased
